This is a sample that favours compounds with a hit; in the whole collection about 3.7% have one here.
Nrf2 activator = Nrf2 pathway activation | Potency, µM (top dose mostly 46.1 µM), actives largely listed as activators | hit rate 0.31% among 410,000 | AID 624171 | AREc32 ARE-luciferase reporter (MCF7-derived line), luminescence, 24 h; note: nearly all actives have a fitted effect of over 65% in size
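Cells of the AREc32 ARE-luciferase line are plated in OPTI-MEM containing 5% FBS and left overnight at 37 deg C. Compounds are pinned in, incubation continues 24 hr, and firefly luciferase signal is then measured.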
miR-21 FLuc = raises the signal of a miR-21 reporter | AID 2288 | 340,000 tested, under 10 active | Potency, µM (series often up to 38.3 µM) | HeLa miR-21 FLuc reporter, luciferase, 48 h; active = well fitted rising curve with a large enough effect; inconclusive = small, poorly fitted or top-dose-only effect; inactive = no such curve, though single readings can be large or run the other way;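 further: miR-21 action dims this reporter so a rising signal means less miR-21 action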
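Compounds were titrated across several concentrations (up to approximately 40 uM) and incubated 48 hours with HeLa miR-21-FLuc reporter cells (miR-21 target sequence downstream of FLuc, endogenous miR-21). Readout was firefly luciferase luminescence after lytic detection reagent.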
IL-2 act = IL-2 activation; IL-2 activation reporter assay, cell-based qHTS; stimulated with anti-CD3/CD4/CD28 beads; in transgenic mouse T cells; hit rate 0.065% among 360,000; AID 652025; activation, % (series mostly up to about 46 µM); in the data active = activation above about 50%; inconclusive = mostly about 30% to 49%
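Using fluorescent plate cytometry, EGFP and DsRed are detected in transgenic mouse T cells stimulated 18 h at 37 degrees C with antibody-coated beads after 60 min compound pretreatment.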
ClpP mod = qHTS Assay for Activators of ClpP | purified B. subtilis ClpP, FRET peptide cleavage, 20 min | Potency, µM (series often up to 57.5 µM) | hit rate 1.9% among 340,000 | AID 651965, 2013; active = well fitted falling curve with a large enough effect; inconclusive = small, poorly fitted or top-dose-only effect; inactive = no such curve, though single readings can be large or run the other way; note: the source files actives as falling curves though it sought activators and does not explain the sign; nearly all actives have a fitted effect of over 65% in size
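Buffer: 100 mM Tris/HCl pH8, 100 mM KCl, 0.05% low protease BSA, 2.5% glycerol, 0.01% Tween-20. ClpP 10 microg/mL final; 20 min RT; delta FRET normalized to ADEP and DMSO controls.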
Nrf2 inh = inhibitors of Nrf2 signaling. hit rate 2.1% among 360,000. AID 504444. Potency, µM (top dose mostly 46 µM), most hits filed as inhibitors. A549 ARE-Fluc reporter, luciferase luminescence, 18-24 h; note: nearly all actives have a fitted effect of over 60% in size
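A549 ARE_Fluc cells, 5000/well, 5% FBS OPTI-MEM; compounds in dose-response, 18-24 h at 37 °C/5% CO2; CellTiter-Fluor viability read (Ex 405/Em 525), then BugLite luciferase luminescence = Nrf2 activity.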
A549 viability = kills or reduces viability of A549 cells in Nrf2 counter-screen; A549 ARE-Fluc cells, CellTiter-Fluor viability, 18-24 h; Potency, µM (series often up to 46 µM), actives largely listed as inhibitors; hit rate 0.16% among 390,000
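A549 ARE-Fluc cells in 5% FBS OPTI-MEM, 5000 cells/well, rested 2 h then exposed to compounds in concentration-response for 18-24 h at 37 °C. Viability by CellTiter-Fluor fluorescence (Ex 405/Em 525) after 30 min; luciferase luminescence (BugLite, 15 min, RT) read afterwards.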
Hits are given with their value; 0 = inactive; ? = inconclusive; - = not tested or not shown; [ ] = another dose, or the depositor's remark. Unless noted, calls come from the whole dose curve; as a rule, active = well fitted curve in the direction sought with a large enough effect; inconclusive = small, poorly fitted or top-dose-only effect, or another doubt; inactive = no such curve, though single readings can be large; an effect the other way counts as inactive or inconclusive.

SMILES | Nrf2 activator | miR-21 FLuc | IL-2 act | ClpP mod | Nrf2 inh | A549 viability
N#Cc1c(N2CCN(C(=O)c3ccccc3)CC2)nc(-c2ccccc2)c2c1CCCC2 | 0 | 0 | 0 | 28.2µM | 0 | ?
N#Cc1c(NCCN)nc(NCc2ccccc2)c2c1CCN(Cc1ccccc1)C2 | 0 | 0 | 0 | 0 | 0 | 0
N#Cc1c(N2CCCCC2)nc(N2CCCCC2)c2c1CCN(Cc1ccccc1)C2 | 0 | 0 | 0 | 11.2µM | 0 | 0
O=C(NCc1cccnc1)C12CC3CC(CC(Cl)(C3)C1)C2 | 0 | 0 | 0 | 0 | 0 | 0
O=C(NCc1ccccc1)C12CC3CC(CC(Cl)(C3)C1)C2 | 0 | 0 | 0 | 31.6µM | 0 | 0
CCCCCCCCN1[C@@H](CC(=O)O)c2ccc(/C=C/C(=O)O)cc2S1(=O)=O | - | - | - | 0 | - | -
Cc1cccc(C=Nc2ccc3c(c2)oc2ccccc23)c1O | 0 | 0 | 0 | 31.6µM | ? | 0
COc1ccc2nc(SCC(=O)O)nc(C)c2c1 | 0 | 0 | 0 | 28.2µM | 0 | 0
COc1ccc2nc(SCCOC(=O)Nc3ccc(Cl)cc3)nc(C)c2c1 | 0 | 0 | 0 | 28.2µM | 23.1µM | ?
COc1ccc2nc(SCc3cccc(C)c3)nc(C)c2c1 | 0 | 0 | 0 | 25.1µM | 0 | 0
COc1ccc2nc(SCc3ccccc3C)nc(C)c2c1 | 0 | 0 | 0 | 7.08µM | 0 | 0
COc1ccc2nc(C)cc(SCC(=O)O)c2c1 | 0 | 0 | 0 | 0 | 0 | 0[1.84 µM]
Cc1cc(C)c2c(/C=C/c3ccc(N(C)C)cc3)ccnc2c1 | - | - | - | 0 | - | -
CCN(C(=O)c1cc2c(s1)-c1c(C)cccc1OC2)c1cc(C)ccc1C | 0 | 0 | - | 0 | ? | 0
O=C(CSc1nc2nn(-c3ccccc3)c(=O)c-2c2n1CCCCC2)Nc1ccc(F)c(F)c1 | 0 | - | 0 | - | 18.4µM | ?
Cc1ccc(C)c(N2CCN(S(=O)(=O)c3ccc(-c4coc(C)n4)cc3)CC2)c1 | 0 | 0 | - | 0 | - | 0
CCN(Cc1ccccc1)C(=O)CN1C(=O)COc2ccc(S(=O)(=O)N(CC)CC)cc21 | 0 | 0 | - | 0 | 0 | 0
CC1(C)OC2CC3C4CCC5=CC(=O)CCC5(C)C4(F)C(O)CC3(C)C2(C(=O)CO)O1 (stereo not drawn) | 0 | - | 0 | - | 0.0052µM | 0
CC1(C)O[C@@H]2C[C@H]3[C@@H]4CCC5=CC(=O)C=C[C@]5(C)[C@@]4(F)[C@@H](O)C[C@]3(C)[C@]2(C(=O)CO)O1 | 0 | 0 | 0 | 0 | 0.0041µM | 0
CC1(C)O[C@@H]2C[C@H]3[C@@H]4C[C@H](F)C5=CC(=O)C=C[C@]5(C)[C@@]4(F)[C@@H](O)C[C@]3(C)[C@]2(C(=O)CO)O1 | 0 | 0 | 0 | 0 | ? | 0
CCC(=O)NC1CC(=O)N(c2ccc3c(c2)OCCO3)C1 (stereo not drawn) | 0 | 0 | - | 0 | - | 0
O=c1c(/C=C(\O)c2ccccc2)nc2ccccc2n1-c1ccccc1 | 0 | 0 | 88.8 | 0 | - | 0
Cc1nc2ccccc2n1-c1ccccc1 | 0 | 0 | 0 | 0 | 0 | 0
CC[C@@]1(O)C(=O)OCc2c1cc1n(c2=O)Cc2cc3c(CN(C)C)c(O)ccc3nc2-1 | 0 | - | 0 | 0 | 2.31µM | ?
CC(C)Cc1nc(N2CCN(C(=O)c3ccccc3)CC2)c(C#N)c2c1CCC2 | 0 | 0 | 0 | 31.6µM | 23.1µM | -
SMILES | Nrf2 activator | miR-21 FLuc | IL-2 act | ClpP mod | Nrf2 inh | A549 viability
CC(C)Cc1nc(N2CCOCC2)c(C#N)c2c1COC(C)(C)C2 | 0 | 0 | 0 | 28.2µM | - | 0
CC(C)Cc1nc(NCCN2CCOCC2)c(C#N)c2c1COC(C)(C)C2 | 0 | 0 | 0 | 0 | 0 | 0
CC(C)Cc1nc(N2CCN(C(=O)C(C)C)CC2)c(C#N)c2c1CCC2 | 0 | 0 | 0 | 20µM | ? | 0
CC(C)Cc1nc(N2CCN(C(=O)c3ccco3)CC2)c(C#N)c2c1CCC2 | 0 | 0 | 0 | ? | ? | 0
CC(C)Cc1nc(N2CCCCC2)c(C#N)c2c1CCC2 | 0 | 0 | 0 | 35.5µM | 0 | 0
CC(=O)N1CCN(c2nc(CC(C)C)c3c(c2C#N)CCC3)CC1 | 0 | 0 | 0 | 0 | 0 | 0
CCOC(=O)c1c(C)oc2nc(C)nc(NCc3ccc(OC)cc3OC)c12 | 0 | 0 | - | 0 | ? | 0
CCCNC(=O)N1CCN(c2nc(C(C)C)c3c(c2C#N)CC(C)(C)OC3)CC1 | 0 | 0 | 0 | 0 | 0 | 0
Cc1ccc(S(=O)(=O)N2CCN(c3nc(C(C)C)c4c(c3C#N)CC(C)(C)OC4)CC2)cc1 | 0 | 0 | 0 | 14.1µM | - | 0
COc1cccc(-n2cnc3sc4c(c3c2=O)CCC4)c1 | 0 | 0 | 0 | 31.6µM | 0 | 0
CCOc1ccc(/C=C/c2ccc3ccccc3n2)cc1OCC | - | - | - | 0 | - | -
Cc1ccc(S(=O)(=O)NCCc2nnc3ccc(SCc4ccccc4C)nn23)cc1 | 0 | 0 | - | 0 | ? | 0
O=C1CC(c2cc3c(cc2Br)OCO3)C2=C(CCCC2=O)N1 (stereo not drawn) | 0 | 0 | 0 | 25.1µM | 0 | 0
CCOC(=O)C1=C(C)NC(=O)CC1c1cc2c(cc1Br)OCO2 (stereo not drawn) | 0 | 0 | 0 | 0 | 0 | 0
CCOC(=O)CCc1c(C)nc2cc(-c3cc(OC)cc(OC)c3)[nH]n2c1=O | 0 | 0 | - | 0 | 0 | 0
Cc1ccc2oc(=O)c3cnn(CC(=O)Nc4cccc(C(F)(F)F)c4)c3c2c1 | 0 | 0 | - | 0 | 0 | 0
CC[n+]1c(/C=C/C=C/N(C(C)=O)c2ccccc2)sc2cc(OC)ccc21 | 0 | 0 | 54.5 | 0 | 0 | 14.6µM
C=CCNC(=O)c1ccc(-c2nc3ccccc3nc2-c2ccccc2)cc1 | 0 | - | 0 | - | 0 | 0
C=CCNC(=O)c1c2c(nc3ccccc13)-c1ccccc1CC2 | 0 | 0 | 0 | 31.6µM | 0 | -
CC(C)CNC(=O)c1c2c(nc3ccccc13)-c1ccccc1CC2 | 0 | 0 | 0 | 28.2µM | 0 | 0
COc1ccccc1/C=C/c1nc2ccccc2n1C(C)C | 0 | 0 | - | 0 | ? | 0
CSc1nnc(-c2sc3cc(C(F)(F)F)cnc3c2-c2ccccn2)n1C | 0 | 0 | 0 | 28.2µM | 0 | 0
O=C(Nc1cccc(C(F)(F)F)c1)c1cc(S(=O)(=O)N2CCCC2)c[nH]1 | 0 | 0 | - | 0 | 0 | 0
O=C(NCCN1CCN(Cc2ccc([N+](=O)[O-])cc2)CC1)C(=O)Nc1ccccc1 | 0 | 0 | 0 | 0 | 0 | 0
O=C(NCCN1CCN(S(=O)(=O)c2ccc([N+](=O)[O-])cc2)CC1)C(=O)Nc1ccccc1 | 0 | 0 | 0 | 28.2µM | 0 | 0
Cc1ccc(C)c(NS(=O)(=O)c2ccc3c(c2)Cc2cc(S(=O)(=O)Nc4cc(C)ccc4C)ccc2-3)c1 | 0 | 0 | 0 | 0 | 13µM | 0

High-throughput results from PubChem.
